Measured affinities in a library of Ab-14 heavy chain variants

Antigen: PDVDLGDISGINAS, a 14-residue peptide of the SARS-CoV-2 spike HR2 region.

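The starting antibody came from a phage panning campaign against this peptide. The variants were designed computationally from a first round of random CDR variants and then made and measured. Several design methods are mixed in this list. The assay is AlphaSeq: two haploid yeast populations carry antibody and antigen on their surface. After mating in shaken culture at 30 °C for 16 h, diploids were selected and their barcode pairs sequenced. Each replicate has its own calibration line, from reference interactions of the BCL2 family. The assay was run in six technical replicates.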

Ab-14 is the parent antibody, in scFv form: VH, then three GGGGS repeats, then VL. The light chain is unchanged in all variants.
VH: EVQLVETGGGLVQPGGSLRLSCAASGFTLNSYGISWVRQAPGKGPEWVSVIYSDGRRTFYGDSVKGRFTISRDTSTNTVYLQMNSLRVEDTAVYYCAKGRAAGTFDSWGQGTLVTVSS
VL: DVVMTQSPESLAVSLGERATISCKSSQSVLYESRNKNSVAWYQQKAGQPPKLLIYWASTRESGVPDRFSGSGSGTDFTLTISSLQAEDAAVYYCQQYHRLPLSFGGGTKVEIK

The parent's heavy chain CDRs are GFTLNSYGIS, VIYSDGRRTFYGDSVK, GRAAGTFDS; each variant's own CDRs replace them letter for letter. Numbers give log10(Kd / nM), so 0 is 1 nM and 3 is 1 µM. Smaller is tighter. The mean shown is taken over the replicates in which the pair was detected. "not detected" means that the variant was in the library but no mating with the target was seen in any replicate; the authors take this as a sign of poor binding, and no number exists.

| mean, log10 nM | seen in | CDR-H1 | CDR-H2 | CDR-H3 |
|---|---|---|---|---|
| -0.75 | 6 of 6 | GFNLDEYGIS | VIYADGMRTFYSDNVK | GEVAGTFDI |
| 0.78 | 3 of 6 | GFTLNEYGIS | VIYSDGRRTFYHDSVK | GRAGGTFDS |
| 0.52 | 6 of 6 | GFLIEEYGIS | VIYADGVRKAYQNSFK | GEVGGTFTN |
| not detected | 0 of 6 | GFDLNSYGVS | VIYSDGRKTFYYDSVK | GRAAGTFDS |
| not detected | 0 of 6 | GFDLEEYGIS | VIYADGKRSQYTDAVK | GKFLVMMTY |
| not detected | 0 of 6 | GFDLNEYGIS | VIYADGLRTAYADSVK | GNNAGTFDV |
| not detected | 0 of 6 | GFTLNSYGSS | VIYRDGRRTFYGDSVK | GRAAGTFDS |
| -0.44 | 6 of 6 | GFDLNEYGIS | VIYADGMRTAYADNVK | GETAGTFDM |
| -0.29 | 6 of 6 | GFDLNEYGIS | VIYADGRRTAYADSVK | GQLAGTFDL |
| -0.70 | 6 of 6 | GFDLNEYGIS | VIYADGRRSFYADSVK | GQLAGTFDN |
| 0.96 | 5 of 6 | GFNLNSYGIS | VIYSDGRRTFYKDSVK | GREAGTFDS |
| -0.27 | 6 of 6 | GFDLNEYGIS | VIYADGVRTFYIDSVK | GEIAGTFDV |
| -0.19 | 6 of 6 | GFDLNEYGIS | VIYADGVRTAYADSVK | GNVAGTFDI |
| -0.45 | 6 of 6 | GFDLNEYGIS | VIYADGSRTAYADSVK | GTNAGTFDL |
| not detected | 0 of 6 | GFSLNSYGIS | VIYSDGRRTFYGDSVK | GSTAGTFDK |
| -0.27 | 6 of 6 | GFNLDEYGIS | VIYADGRRTFYSDNVK | GEHAGTFDI |
| not detected | 0 of 6 | GFTLQSYGIS | VIYSDGMRTFYGDSVK | WTAAGTFDS |
| not detected | 0 of 6 | GFTLNEYGTS | VIYSDGRRTFETDNVK | ERFAGTFDS |
| -0.25 | 6 of 6 | GFDLNEYGIS | VIYADGQRTAYADKVK | GNVAGTFDV |
| 0.69 | 6 of 6 | GFQLNSYGIS | VIYSDGRRTAYGDNVK | GRNAGTFDS |
| 0.88 | 1 of 6 | GFTLNSYGIS | VIYFDGRRTFYGDSVK | GREAGTFDL |
| 0.15 | 6 of 6 | GFNLNSYGIS | VIYSDGRRTFYADDVK | GRNAGTFDS |
| 1.76 | 6 of 6 | GFRLNSYGIS | VIYSDGRRTFYKDSVK | GRAAGTFES |
| -1.82 | 6 of 6 | GFDLNEYGIS | VIYADGRRTQYADSVK | GETAGTFDV |
| not detected | 0 of 6 | GQSLEEYGIS | VIYADGFRTQYKDSVK | GKNVFDIIV |
| 0.28 | 6 of 6 | GFDLNSYGIS | VIYSDGRRTFYVDDVK | GKAAGTFDS |
| 1.14 | 6 of 6 | GFSLNSYGIS | VIYSDGRRTFYKDSVK | GRNAGTFDS |
| -0.13 | 6 of 6 | GFTLNSYGIS | VIYSDGRRTFYADSVK | GKEAGTFDR |
| 1.44 | 5 of 6 | SFSLNSYGIS | VIYSDGRRTFYGDSVK | GKTAGTFDS |
| -0.46 | 6 of 6 | GFDLNEYGIS | VIYADGVRTAYSDSVK | GNNAGTFDT |
| not detected | 0 of 6 | GKDINEYGVS | VIYADGKRNAYINKVK | GKNAGAFVD |
| 0.76 | 6 of 6 | GFTLNDYGIS | VIYSDGRRTFYGDSVK | GRTAGTFSS |
| 1.23 | 2 of 6 | GFDLNEYGIS | VIYADGMRTAYSDSVK | GSNAGTFDV |
| 0.58 | 6 of 6 | GFTLNDYGIS | VIYSDGRRTFYGDSVK | GRTAGTFTL |
| 0.64 | 6 of 6 | GFHLNSYGIS | VIYSDGRRTFYADSVK | GVAAGTFDS |
| 0.52 | 6 of 6 | GFDLDEYGIS | VIYADGMRTAYSDSVK | GETAGTFDL |
| not detected | 0 of 6 | GFNLEEYGIS | VIYADGDRMSYDEAVK | GQISGVIDM |
| not detected | 0 of 6 | GFNLLEYGIS | VIYADGRRTFYTDSFK | GGLGKDLTD |
| not detected | 0 of 6 | GFTLNSYGIR | VIYSDGRRTFYSDSVK | GRAGGTFDS |
| -1.03 | 6 of 6 | GFDLNEYGIS | VIYADGKRTAYSDSVK | GSNAGTFDI |
| not detected | 0 of 6 | GTTLNDYGIS | VIYSDGRRTQYIDSVK | GRAAGTFDS |
| 1.83 | 5 of 6 | GFDLNEYGIS | VIYADGMRTAYSDSVK | GGVAGTFDV |
| 0.76 | 6 of 6 | GFELNSYGIS | VIYSDGRRTFYGDSVK | GQVAGTFDS |
| not detected | 0 of 6 | GFNLDEYGIS | VIYADGMRTAYGNNVK | GAVFGDLIS |
| 0.79 | 5 of 6 | GFTLNSYGIS | VIYSDGRRTQYGDSVK | GAAAGTFDS |
| not detected | 0 of 6 | GFDLNSYGIS | VIYSDGRRTFYGDSVK | GLAAGWFNS |
| not detected | 0 of 6 | GFTLNEYGIS | VIYSDGYRTFYGDSVK | GRAAVTFDQ |
| -0.64 | 6 of 6 | GFDLDEYGIS | VIYADGKRTAYSDSVK | GNNAGTFDM |
| 1.07 | 4 of 6 | GFTLESYGIS | VIYSDGRRTFYDDSVK | GRAAGTFDS |
| 0.62 | 1 of 6 | GFELNSYGIS | VIYSDGRRTFYGDDVK | GRQAGTFDS |
| -0.46 | 6 of 6 | GFDLNEYGIS | VIYADGMRTAYADSVK | GKNAGTFDL |
| not detected | 0 of 6 | GFDLAEYGVS | VIYADGKRTHYADHVK | GVNLGFFDL |
| 0.12 | 6 of 6 | GFDLNSYGIS | VIYADGRRTFYGDSVK | GNAAGTFDS |
| 0.50 | 6 of 6 | GFDLNEYGIS | VIYADGVRTAYANSVK | GETAGTFDV |
| 1.94 | 3 of 6 | GFSIDEYGIS | VIYADGARASYAPKVK | GQEAGDLIE |
| not detected | 0 of 6 | GFDLAEYGIS | VIYADGMRNAYAQNFK | GYIGGTIMY |
| -0.56 | 6 of 6 | GFDLNEYGIS | VIYADGVRTSYADSVK | GNEAGTFDV |
| 0.08 | 6 of 6 | GFSLNDYGIS | VIYSDGRRTFYGDSVK | GRAAGTFKS |

The range of this assay differs from that of the first round, and the authors advise against merging the two. Nonspecific signal, from three strains lacking the peptide, appeared in 1% of pairings of all heavy chain designs, centred on 2.08 (5% of these signals below 0.84); values are not corrected for it. The authors averaged sequences with at least three values out of six and counted those with two or fewer as poor binders.

Source: Li et al. 2023 (doi:10.1038/s41467-023-39022-2), MIT Lincoln Laboratory and A-Alpha Bio; data file from the FLAb repository.